# System: murine tumors and human tumor xenografts
# Assay: Antineoplastic activity in tumor-carrying animals, general statements
# Conditions: treated animals regain their initial weight loss
structure (smiles),measurement,value
"Nc1ccc(C(=O)Nc2ccccc2N)cc1 [Substance A, 4-Amino-N-(2'-aminophenyl)-benzamide]",tolerated duration of doses just under the acutely lethal dose,more than 30 days

# From patent publication US4933368A, “N-phenylbenzamide derivatives” (Godecke Aktiengesellschaft, priority 1983, dated 1990)
